Results published in ChEMBL document CHEMBL2163252, “Azapeptide analogues of the growth hormone releasing peptide 6 as cluster of differentiation 36 receptor ligands with reduced affinity for the growth hormone secretagogue receptor 1a” (J Med Chem, 2012).

The chains behind the UniProt entries cited, without tags or fusion partners. Where a name states a change or a piece, a line headed by the entry shows the natural chain unless it says otherwise.
UniProt Q07969: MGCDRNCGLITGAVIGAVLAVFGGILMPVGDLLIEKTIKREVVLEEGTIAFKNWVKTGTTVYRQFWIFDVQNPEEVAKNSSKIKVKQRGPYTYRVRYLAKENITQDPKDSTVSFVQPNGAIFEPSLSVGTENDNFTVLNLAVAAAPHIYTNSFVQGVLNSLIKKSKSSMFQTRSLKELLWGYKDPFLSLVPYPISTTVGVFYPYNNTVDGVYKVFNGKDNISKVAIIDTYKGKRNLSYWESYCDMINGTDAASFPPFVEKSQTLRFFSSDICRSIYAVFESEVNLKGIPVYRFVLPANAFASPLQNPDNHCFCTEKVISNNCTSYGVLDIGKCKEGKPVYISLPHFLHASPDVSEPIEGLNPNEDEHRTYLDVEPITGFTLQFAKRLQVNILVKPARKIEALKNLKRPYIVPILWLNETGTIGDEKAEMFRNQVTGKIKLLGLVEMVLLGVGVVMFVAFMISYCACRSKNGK
UniProt Q92847, whole entry: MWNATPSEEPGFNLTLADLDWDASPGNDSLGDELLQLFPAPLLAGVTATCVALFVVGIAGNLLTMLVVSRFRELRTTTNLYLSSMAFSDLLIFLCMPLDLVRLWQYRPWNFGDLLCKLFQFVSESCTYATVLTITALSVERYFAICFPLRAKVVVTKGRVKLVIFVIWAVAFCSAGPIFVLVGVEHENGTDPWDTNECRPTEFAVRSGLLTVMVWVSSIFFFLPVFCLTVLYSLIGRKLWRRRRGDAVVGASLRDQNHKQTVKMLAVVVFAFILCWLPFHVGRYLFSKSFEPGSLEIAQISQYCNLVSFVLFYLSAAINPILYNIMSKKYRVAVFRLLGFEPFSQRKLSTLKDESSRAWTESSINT

Key:
Platelet glycoprotein 4 = Platelet glycoprotein 4 (Rattus norvegicus, UniProt Q07969); assay: Displacement of photoactivatable [125I]-Tyr-Bpa-Ala-Hexarelin from CD36 in Sprague-Dawley rat cardiac membranes incubated for 60 mins by densitometry; format: cell membranes, Membrane
[1] = biological target: Growth hormone secretagogue receptor type 1 (Homo sapiens, UniProt Q92847); assay: Displacement of [125I]ghrelin expressed in LLC-PK1 cells incubated for 1 hr by gamma counting method; format: cell-based
Summary of the method: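 Membranes from LLC-PK1 cells transiently transfected with GHS-R1a (CaPO₄; harvested 24 h later; freeze/thaw lysis, 10000g), 10 μg protein/tube. Incubated with ¹²⁵I-ghrelin (40,000 cpm) and competitor 10⁻¹² to 10⁻⁵ M, 1 h at RT, in Tris/MgCl₂/EDTA/bacitracin buffer pH 7.3. Nonspecific binding set with 10⁻⁵ M competitor. Bound separated by filtration on PEI-soaked GF/C filters, gamma counted.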

## C[C@H](NC(=O)N(Cc1ccc(O)cc1)NC(=O)C(N)Cc1cnc[nH]1)C(=O)N[C@@H](Cc1c[nH]c2ccccc12)C(=O)N[C@H](Cc1ccccc1)C(=O)N[C@@H](CCCCN)C(N)=O (stereo partly drawn)
Platelet glycoprotein 4
  IC50: 1800 nM

## C[C@H](NC(=O)N(CCc1ccccc1)NC(=O)C(N)Cc1cnc[nH]1)C(=O)N[C@@H](Cc1c[nH]c2ccccc12)C(=O)N[C@H](Cc1ccccc1)C(=O)N[C@@H](CCCCN)C(N)=O (stereo partly drawn)
[1]
  IC50: 729 nM
Platelet glycoprotein 4
  IC50: 36800 nM
